Measured values from patent US20220073598A1 (KYMAB, published 2022).

Biological target: T1, recombinant human BMP6 (Peprotech 120-06) (human, UniProt P22004 397-513)
T1 construct: Biotinylated and immobilised for SPR; also called hBMP6; Bone Morphogenetic Protein 6
T1 sequence: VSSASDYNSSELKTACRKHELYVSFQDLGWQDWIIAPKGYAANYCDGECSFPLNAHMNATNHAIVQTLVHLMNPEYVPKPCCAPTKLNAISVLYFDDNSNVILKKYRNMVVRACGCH
Experiment: HTRF competition, unlabelled antibody titrated; competitor: labelled CL-58838

B1: CL-58835 (antibody, human IgG4 S228P, kappa, V domains shown)
VH: QVQLVESGGGLVKPGGSLRLSCAASGFTFSDYYMSWIRQAPGKGLEWVSYISISGTTIYYADSVKGRFTISRDNAMDSLYLQMNSLRAEDTAVYYCARRSSGWYDYWGQGTLVTVSS
VL: EIVLTQSPGTLSLSPGERATLSCWASQRVVYRYLAWYQRKPGQAPRLLIYGAFNRATGIPDRFSGSGSGTDFSLTISRLEPEDFAVYYCHQYGSSPPTFGQGTKVEIKR
**Q.** Does B1 bind?
**A.** binds
